In PubChem BioAssay (NCATS):
Only a part is listed here, and it is no random draw. Results filed as inconclusive are left out. The source made the active and inactive calls. Unless noted, calls follow the shape of the dose curve; as a rule, active = well fitted curve in the direction sought with a large enough effect; inconclusive = small, poorly fitted or top-dose-only effect, or another doubt; inactive = no such curve, though single readings can be large; an effect the other way counts as inactive or inconclusive.

Amino acid sequences for entries named in this document (tags omitted).
UniProt P08684, whole entry: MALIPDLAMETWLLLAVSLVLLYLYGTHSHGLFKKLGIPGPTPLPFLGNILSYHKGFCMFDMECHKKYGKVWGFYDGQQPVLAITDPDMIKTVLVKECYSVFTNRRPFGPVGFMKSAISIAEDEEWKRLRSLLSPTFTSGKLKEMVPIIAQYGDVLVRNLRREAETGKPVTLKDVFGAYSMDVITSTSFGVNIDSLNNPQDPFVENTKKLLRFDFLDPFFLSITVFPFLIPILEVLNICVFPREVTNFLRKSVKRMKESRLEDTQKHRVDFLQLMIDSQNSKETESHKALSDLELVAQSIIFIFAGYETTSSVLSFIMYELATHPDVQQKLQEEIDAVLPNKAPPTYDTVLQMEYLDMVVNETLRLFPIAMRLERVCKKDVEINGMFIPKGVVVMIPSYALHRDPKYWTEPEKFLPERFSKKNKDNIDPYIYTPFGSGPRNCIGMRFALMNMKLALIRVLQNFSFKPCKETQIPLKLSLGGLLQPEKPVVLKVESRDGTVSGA
UniProt P63096, whole entry: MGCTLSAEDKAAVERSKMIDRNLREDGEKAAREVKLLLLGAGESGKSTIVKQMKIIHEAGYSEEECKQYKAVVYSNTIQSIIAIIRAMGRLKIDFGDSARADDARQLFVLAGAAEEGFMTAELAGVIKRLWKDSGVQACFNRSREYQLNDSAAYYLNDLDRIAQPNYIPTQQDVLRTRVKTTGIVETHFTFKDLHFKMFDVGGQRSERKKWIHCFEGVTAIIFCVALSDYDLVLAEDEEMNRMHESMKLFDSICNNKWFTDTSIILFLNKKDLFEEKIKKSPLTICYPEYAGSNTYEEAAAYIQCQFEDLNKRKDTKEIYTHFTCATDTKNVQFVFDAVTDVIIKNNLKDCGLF
UniProt P08482, whole entry: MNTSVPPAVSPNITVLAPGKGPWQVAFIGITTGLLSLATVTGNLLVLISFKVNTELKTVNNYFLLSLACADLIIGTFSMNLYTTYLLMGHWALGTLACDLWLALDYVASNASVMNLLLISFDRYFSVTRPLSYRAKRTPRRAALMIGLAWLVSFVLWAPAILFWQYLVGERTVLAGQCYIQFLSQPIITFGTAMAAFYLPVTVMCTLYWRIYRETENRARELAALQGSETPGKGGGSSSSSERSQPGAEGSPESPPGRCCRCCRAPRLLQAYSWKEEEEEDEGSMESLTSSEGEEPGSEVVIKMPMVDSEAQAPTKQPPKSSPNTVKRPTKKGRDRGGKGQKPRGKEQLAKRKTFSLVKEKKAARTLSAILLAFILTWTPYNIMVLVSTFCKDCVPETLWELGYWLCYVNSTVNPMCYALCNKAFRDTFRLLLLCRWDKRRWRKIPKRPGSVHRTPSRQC

How the values were obtained:
[1] = Cellular Toxicity (caspase-3) Hek293 (AID 664); details: HEK293 caspase-3 activation, DMSO = 0%, 100 µM tamoxifen = 100%; at 92.2 µM (top of the series);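 also: cells exposed to compound for 16 h at 37 °C before readout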
Procedure, shortened: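 HEK293 cells were exposed to compounds in complete medium for 16 hr at 37 °C, then caspase-3/7 activity was read by Caspase-Glo 3/7 luminescence after 20 min at room temperature. Data normalized to DMSO and 100 uM tamoxifen; AC50 from Hill fits.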

[2] = Cellular Toxicity (caspase-3) N2a (AID 665); details: N2a cells, luminescence, normalized: DMSO 0%, 10 µM staurosporine 100%; at 92.2 µM (top of the series);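 also: compound exposure lasted 16 h at 37 °C before readout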
Procedure, shortened: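 Mouse N2a neuroblastoma cells (1500/well) were treated with compounds for 16 h at 37 °C, then caspase-3/7 activity was read by Caspase-Glo luminescence after 1 h at room temperature. Data were normalized to DMSO and 10 uM staurosporine; AC50 from Hill fits.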

[3] = Cellular Toxicity (caspase-3) NIH 3T3 (AID 666); details: NIH 3T3 caspase-3 activation, apoptosis/toxicity, 0% DMSO, 100% is 100 µM tamoxifen; at 92.2 µM (top of the series);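 also: 0% = DMSO basal and 100% = 100 µM tamoxifen stimulation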
Procedure, shortened: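 Mouse NIH 3T3 fibroblasts (1000 cells/well) were treated with compound for 16 hr at 37°C in complete medium; caspase-3/7 activity was read by Caspase-Glo luminescence. Normalized to DMSO and 100 uM tamoxifen; AC50 from Hill fits.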

[4] = Cellular Toxicity (caspase-3) Renal Proximal Tubule (AID 667); details: renal proximal tubule cells, primary cells freshly taken from rat, solvent-only wells 0%, staurosporine 100%; at 91.7 µM (top of the series);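 also: cells exposed to compound for 16 hours at 37 °C before detection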
Procedure, shortened: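 Caspase-Glo 3/7 read-out, rat primary kidney proximal tubule cells. Compound exposure 16 h, 37 °C; detection after 1 h at RT. Activity scaled to DMSO and 10 uM staurosporine.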

[5] = qHTS Assay for Identification of Small Molecule Agonists for Hypoxia Response Element Signaling Pathway (AID 914; active = well fitted activation curve with a large enough effect in the signal ratio, with a control signal flat, not every such curve was filed as active; the % refers to the signal ratio; also: % of control where 0% means no effect); details: ME-180 (cervical carcinoma) HRE-bla reporter, beta-lactamase ratio, CoCl2, 17 h; active compounds read high
[6] = target: Cytochrome P450 3A4 (Homo sapiens) (UniProt P08684); assay: qHTS Assay for Inhibitors and Substrates of Cytochrome P450 3A4 (AID 884); details: recombinant CYP3A4, Luciferin-PPXE luminescence; at 57.1 µM (top of the series); also: % is scaled to controls: 0 for no effect and ±100 for the full control effect; nearly all actives have a fitted effect of over 50% in size
[7] = Cell Viability - LYMP2-001 (AID 921); details: LYMP2-001 lymphoblastoid cell viability; at 92.2 µM (top of the series);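 also: cells exposed to compound for 24 h at 37 °C; 0% = DMSO only and full inhibition = tetraoctylammonium bromide control wells; nearly all actives have a fitted effect of over 70% in size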
Procedure, shortened: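 A lymphoblastoid cell line of human origin was treated with library compounds across a concentration series for 24 hours, and viable cell number was estimated from ATP-driven luciferase light output. Hill modeling gave AC50.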

[8] = target: Guanine nucleotide-binding protein G(i) subunit alpha-1 (Homo sapiens) (UniProt P63096); assay: qHTS Assay for Inhibitors of RGS12 GoLoco Motif Activity (Green Fluorophore) (AID 879); details: Galphai1/FITC-RGS12 GoLoco peptide, fluorescence polarization; at 57.1 µM (top of the series);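 also: 0% = labeled peptide with Gαi1 and full inhibition = labeled peptide alone without protein; negative values mean loss of peptide binding seen as reduced polarization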
Procedure, shortened: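 Fluorescence polarization assay: 50 nM Gαi1 with 10 nM FITC-labeled RGS12 GoLoco peptide in 10 mM Tris pH 7.5, 150 mM NaCl, 0.1 mM GDP, 0.05% NP40, 10 min at room temperature with compound.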

[9] = qHTS Assay for Identification of Small Molecule Antagonists for NFkB Signaling Pathway (AID 895; active = well fitted inhibition curve with a large enough effect in the signal ratio, with a control signal flat, not every such curve was filed as active; the % refers to the signal ratio; also: % is scaled to controls: 0 for no effect and ±100 for the full control effect); details: NFkB beta-lactamase reporter cells, FRET ratio 460/530, stimulated with 10 pM TNF alpha; at 38.3 µM (top of the series)
[10] = target: Muscarinic acetylcholine receptor M1 (Rattus norvegicus) (UniProt P08482); assay: qHTS Assay for Antagonists of Acetylcholine Muscarinic M1 Receptor: Kinetic Measurement of Intracellular Calcium Response (AID 943); details: M1-expressing cells, kinetic intracellular calcium fluorescence; at 35.3 µM (top of the series);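 also: Fluo-4 calcium signal as peak divided by basal fluorescence over 4 min; nearly all actives have a fitted effect of over 75% in size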

Cc1ccc([N+](=O)[O-])c([N+](=O)[O-])c1
inactive: caspase-3 activation [1] -0.933% | caspase-3 activation [2] -2.97% | caspase-3 activation [3] 27.8% | caspase-3 activation [4] -8.24%

N1=C(c2nnc(-c3nn[nH]n3)nn2)NNN1
inactive: activation [5] -7.84%

[NH4+].[O-][Cl+3]([O-])([O-])[O-]
inactive: caspase-3 activation [1] -1.16% | caspase-3 activation [2] 1.12% | caspase-3 activation [3] 0.204% | caspase-3 activation [4] 5.77% | activity change, negative = inhibition [6] -15.1% | activity change, negative = cytotoxic [7] -19.4%

OCCSCCO
inactive: activity change, negative = inhibition [6] -1.48%

N#[O+].[C-]#N.[C-]#N.[C-]#N.[C-]#N.[C-]#N.[Fe+2].[Na+].[Na+]
inactive: activity, negative = inhibition [8] 13.8% | activity change, negative = inhibition [9] -0.111% | activation [5] 17.2% | activity change, negative = inhibition [10] -43.8%

Cc1ccc([N+](=O)[O-])cc1[N+](=O)[O-]
inactive: caspase-3 activation [1] 2.69% | caspase-3 activation [2] -3.21% | caspase-3 activation [3] -1.55% | caspase-3 activation [4] -6.85% | activity change, negative = inhibition [6] -22.6% | activity change, negative = cytotoxic [7] -8.64%

CCN(CCCl)Cc1ccccc1C
inactive: activity change, negative = inhibition [6] -20%

O=[N+]([O-])c1cccc([N+](=O)[O-])c1
inactive: caspase-3 activation [1] 2.3% | caspase-3 activation [2] -1.16% | caspase-3 activation [3] -3.15% | caspase-3 activation [4] -8.17% | activity change, negative = inhibition [6] -20.4% | activity change, negative = cytotoxic [7] -0.32%

O=[N+]([O-])[O-].[NH4+]
inactive: caspase-3 activation [1] 0.798% | caspase-3 activation [2] -2.06% | caspase-3 activation [3] -0.909% | caspase-3 activation [4] 3.15% | activity change, negative = inhibition [6] -6.93% | activity change, negative = cytotoxic [7] -13.3%

Cc1c([N+](=O)[O-])cccc1[N+](=O)[O-]
inactive: caspase-3 activation [1] 0.492% | caspase-3 activation [2] -1.62% | caspase-3 activation [3] -8.11% | caspase-3 activation [4] -7.72% | activity change, negative = inhibition [6] 8.77% | activity change, negative = cytotoxic [7] -0.528%

CCC(C)(OO)OOC(C)(CC)OO (centres undefined)
inactive: caspase-3 activation [1] -2.34% | caspase-3 activation [2] -2.57% | caspase-3 activation [3] -0.493% | caspase-3 activation [4] 0.274% | activity change, negative = inhibition [6] -27.5% | activity change, negative = cytotoxic [7] -51.1%

Cc1cccc([N+](=O)[O-])c1[N+](=O)[O-]
inactive: caspase-3 activation [1] -0.202% | caspase-3 activation [2] -2.55% | caspase-3 activation [4] -4.2% | activity change, negative = inhibition [6] -3.15% | activity change, negative = cytotoxic [7] -15.5%

CCOP(=O)(CC)OCC
inactive: caspase-3 activation [1] 0.191% | caspase-3 activation [2] 0.797% | caspase-3 activation [3] -2.57% | caspase-3 activation [4] -5.2% | activity change, negative = inhibition [6] -13.6% | activity change, negative = cytotoxic [7] -3.86%

C/C1=C2N=C(/C=C3N=C(/C(C)=C4\[N-][C@@](C)([C@H]5N=C1[C@@](C)(CCC(=O)NC[C@H](C)OP(=O)([O-])O[C@@H]1[C@H](O)[C@H](n6cnc7cc(C)c(C)cc76)O[C@@H]1CO)[C@@H]5CC(N)=O)[C@](C)(CC(N)=O)[C@H]4CCC(N)=O)[C@@](C)(CC(N)=O)[C@@H]\3CCC(N)=O)C(C)(C)[C@@H]/2CCC(N)=O.[C-]#N.[Co+3]
inactive: activation [5] 13.3%
